Results on two compounds are retold here after patent US20250041311A1, “Compound For Treating or Preventing Vimentin-Mediated Diseases” (Aluda Pharmaceuticals, Inc., priority 2021, published 2025).

Molecules are shown by their SMILES.

Data set [1] has as its system human umbilical vein endothelial cells (HUVEC). As to conditions: highest concentration of 10 μM, 3 days.
Data set [2] relates to primary human hepatocytes. The settings on record: highest concentration of 10 μM, 3 days.

On to `O=C(Nc1ccc(Cl)cc1)Nc1ccc(Nc2nc(/C=C/c3ccccc3)nc(N3CCOCC3)n2)cc1` [Compound C50], for which the “toxic effects on human umbilical vein endothelial cells” value in data set [1] is “no toxic effects”. For the same compound, the “toxic effects on human hepatocytes” value in data set [2] was “no toxic effects”.

Regarding `O=C(Nc1ccc(F)cc1)Nc1ccc(Nc2nc(/C=C/c3ccccc3)nc(N3CCOCC3)n2)cc1` [Compound C52], in data set [1], the “toxic effects on human umbilical vein endothelial cells” value is reported as “no toxic effects”. Moreover, in data set [2], the “toxic effects on human hepatocytes” value is reported as “no toxic effects”.
